For the assay, the system named is Recurrent Respiratory Papillomatosis due to Human Papillomavirus subtype 6 (HPV-6). Nature of the assay: Case report: systemic, topical and nebulized cidofovir in a young child with recurrent respiratory papillomatosis. It is filed as in vivo. Conditions: systemic cidofovir q2 weeks plus Interferon α2b 5 MU/m^2 3× weekly. As to the method: We decided that applying cidofovir using a flexible bronchoscope and a cytology brush soaked in cidofovir would be a reasonable method to attempt to deliver the drug to the papillomas. We used the intravenous form of the drug, diluted to the concentration used in the gel based formula.
Nebulized drugs are administered by breaking up a solution of drug in a medication cup that has forced air going through it, making a “mist”. If the amount of solution in the medication cup has 4 ml in it, the resulting droplet size is 2-4 microns in diameter, the right size to deposit the drug into the airways after the main airway (trachea). Some drug will deposit more proximal (trachea) but the bulk of the drug deposits in the lower airways. Therefore, we made a 4 ml solution at the same concentration we were using for the topical application. This had numerous benefits for our patient: no more frequent trips to the operating room, the drug could be delivered more frequently, the drug could be administered at home, and obvious reduction of significant operative risks. Additionally, the drug could reach those airways which were unreachable by surgical means.
Herein we report the use of nebulized cidofovir to treat RRP disease in a young child without significant side effects. E presented with respiratory failure and stridor. […]

For the substance Interferon α2b, the course of disease result is recorded as “‘stabilized’ for 3 months”. Also, the course of disease entry (listed as Interferon) is listed as “did not halt the progression of the disease”.

These data come from patent US20090023685A1, “Nebulized or Sprayed Cidofovir for Recurrent Respiratory Papillomatosis” (priority 2007, published 2009).
